By IC50 is commonly meant the concentration that inhibits the measured activity by half.

The assay has as its target human NaV subtype. Kind of assay: E-VIPR optical membrane potential assay with electrical stimulation. The settings on record: read-out: Binned Activity Data (IC50); active against one or more sodium channels; assay and NaV subtype not specified for Table 3. The text has this: E-VIPR Optical Membrane Potential Assay Method with Electrical Stimulation
Sodium channels are voltage-dependent proteins that can be activated by inducing membrane voltage changes by applying electric fields. The electrical stimulation instrument and methods of use are described in Ion Channel Assay Methods PCT/US01/21652, herein incorporated by reference and are referred to as E-VIPR. The instrument comprises a microtiter plate handler, an optical system for exciting the coumarin dye while simultaneously recording the coumarin and oxonol emissions, a waveform generator, a current- or voltage-controlled amplifier, and a device for inserting electrodes in well. Under integrated computer control, this instrument passes user-programmed electrical stimulus protocols to cells within the wells of the microtiter plate.
24 hours before the assay on E-VIPR, HEK cells expressing human NaV subtype, like NaV 1.7, are seeded in 384-well poly-lysine coated plates at 15,000-20,000 cells per well. Other subtypes are performed in an analogous mode in a cell line expressing the NaV of interest. HEK cells are grown in media (exact composition is specific to each cell type and NaV subtype) supplemented with 10% FBS (Fetal Bovine Serum, qualified; GibcoBRL #16140-071) and 1% Pen-Strep (Penicillin-Streptomycin; GibcoBRL #15140-122). Cells are grown in vented cap flasks, in 90% humidity and 10% CO2, to 100% confluence. They are usually split by trypsinization 1:10 or 1:20, depending on scheduling needs, and grown for 2-3 days before the next split.
100 mg/mL Pluronic F-127 (Sigma #P2443), in dry DMSO
Compound Plates: 384-well round bottom plate, e.g. Corning 384-well Polypropylene Round Bottom #3656
Cell Plates: 384-well tissue culture treated plate, e.g. Greiner #781091-1B
Bath1 buffer. Glucose 10 mM (1.8 g/L), Magnesium Chloride (Anhydrous), 1 mM (0.095 g/L), Calcium Chloride, 2 mM (0.222 g/L), HEPES 10 mM (2.38 g/L), Potassium Chloride, 4.5 mM (0.335 g/L), Sodium Chloride 160 mM (9.35 g/L).
Hexyl Dye Solution: Bath1 Buffer+0.5% β-cyclodextrin (make this prior to use, Sigma #C4767), 8 μM CC2-DMPE+DiSBAC6(3). To make the solution Add volume of 10% Pluronic F127 stock equal to volumes of CC2-DMPE+DiSBAC6(3). The order of preparation is first mix Pluronic and CC2-DMPE, then add DiSBAC6(3) while vortexing, then add Bath1+β-Cyclodextrin.
1) Pre-spot compounds (in neat DMSO) into compound plates. Vehicle control (neat DMSO), the positive control (20 mM DMSO stock tetracaine, 125 μM final in assay) and test compounds are added to each well at 160× desired final concentration in neat DMSO. Final compound plate volume will be 80 μL (80-fold intermediate dilution from 1 μL DMSO spot; 160-fold final dilution after transfer to cell plate). […]
7) Read Plate on E-VIPR. […]
As for `CC(C)(C)S(=O)(=O)c1ccc(C(=O)N2CCC3(CC2)Oc2ccccc2-c2nn(C(F)(F)F)cc23)cc1`, the IC50 is less than 2000 nM.

For the molecule `CC(C)Oc1ccc(C(=O)N2CCC3(CC2)Oc2ccccc2-n2cccc23)cc1C(F)(F)F`, the IC50 was less than 2000 nM.

As to `CCn1ncc2c1-c1ccccc1OC21CCN(C(=O)c2cccc(F)c2OC(F)F)CC1`, the concentration for half-maximal inhibition (IC50) was less than 2000 nM.

For `COc1cc(C(=O)N2CCC3(CC2)Oc2cc(Cl)ccc2-n2cccc23)ccc1CCO`, the IC50 was less than 2000 nM.

The values are drawn from patent US20140171427A1, “Heterocyclic chromene-spirocyclic piperidine amides as modulators of ion channels” (VERTEX PHARMACEUTICALS INCORPORATED, priority 2010, published 2014).
